# According to paper PMC5915086 (Oncotarget, 2018):
# What was measured:
# PRMT4 [1] = target: T1, PRMT4 (Homo sapiens, UniProt Q86X55); assay: PRMT4 methyltransferase scintillation proximity assay; assay type: biochemical; design: 1–608; made in house
# T1 sequence (Q86X55 1-608): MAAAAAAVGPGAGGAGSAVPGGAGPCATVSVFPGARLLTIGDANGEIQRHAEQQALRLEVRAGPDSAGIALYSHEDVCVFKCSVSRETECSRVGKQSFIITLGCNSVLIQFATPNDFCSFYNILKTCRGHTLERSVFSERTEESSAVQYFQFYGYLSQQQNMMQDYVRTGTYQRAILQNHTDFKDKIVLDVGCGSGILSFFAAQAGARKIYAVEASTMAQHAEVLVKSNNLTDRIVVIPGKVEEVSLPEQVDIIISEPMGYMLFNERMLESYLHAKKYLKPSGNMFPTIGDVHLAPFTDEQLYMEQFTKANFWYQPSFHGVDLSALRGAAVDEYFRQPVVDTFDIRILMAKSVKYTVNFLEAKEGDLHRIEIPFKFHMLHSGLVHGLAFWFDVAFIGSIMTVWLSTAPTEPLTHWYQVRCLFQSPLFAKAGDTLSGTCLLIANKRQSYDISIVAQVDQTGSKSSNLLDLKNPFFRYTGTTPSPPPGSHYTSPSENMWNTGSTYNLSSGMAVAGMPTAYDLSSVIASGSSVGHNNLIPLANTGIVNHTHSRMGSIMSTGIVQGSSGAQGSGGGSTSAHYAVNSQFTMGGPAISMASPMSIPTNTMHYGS
# PRMT4 [2] = target: T1, PRMT4; assay: Differential static light scattering (DSLS) binding
structure (smiles),measurement,setting,value
"COCCN1CCC(c2cc(CN(C)C(=O)c3cccc(Oc4ccccc4)c3)ccn2)CC1 [TP-064N, N-((2-(1-(2-methoxyethyl)piperidin-4-yl)pyridin-4-yl)methyl)-N-methyl-3-phenoxybenzamide]",effect on PRMT4 activity,PRMT4 [1],no effect
same,binding to PRMT4 by DSLS,PRMT4 [2],No binding; also recorded: not observed

# Entries after “also recorded” stand apart in the source; their conditions may differ.
